Experimental findings from BindingDB's records for doi:10.1016/s0028-3908(97)00049-x (Roche Bioscience, 1997) are described below.

Protein sequences, listed by entry. Tags and fused reporters are not part of them. Lines headed by an entry give the natural chain unless they say otherwise; changes in a name come on top.
UniProt P14842, whole entry: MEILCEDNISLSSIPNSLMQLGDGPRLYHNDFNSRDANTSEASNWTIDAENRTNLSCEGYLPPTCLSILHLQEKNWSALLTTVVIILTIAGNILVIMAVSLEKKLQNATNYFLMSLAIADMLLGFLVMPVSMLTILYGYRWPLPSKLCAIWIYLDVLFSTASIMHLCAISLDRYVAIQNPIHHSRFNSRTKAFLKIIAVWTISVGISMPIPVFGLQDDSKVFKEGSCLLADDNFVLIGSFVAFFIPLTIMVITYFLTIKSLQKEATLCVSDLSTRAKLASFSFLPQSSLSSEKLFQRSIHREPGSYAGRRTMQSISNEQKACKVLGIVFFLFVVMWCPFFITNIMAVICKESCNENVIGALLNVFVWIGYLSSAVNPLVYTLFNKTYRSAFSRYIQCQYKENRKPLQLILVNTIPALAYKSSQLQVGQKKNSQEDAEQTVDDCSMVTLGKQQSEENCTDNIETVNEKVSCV
UniProt P28223, whole entry: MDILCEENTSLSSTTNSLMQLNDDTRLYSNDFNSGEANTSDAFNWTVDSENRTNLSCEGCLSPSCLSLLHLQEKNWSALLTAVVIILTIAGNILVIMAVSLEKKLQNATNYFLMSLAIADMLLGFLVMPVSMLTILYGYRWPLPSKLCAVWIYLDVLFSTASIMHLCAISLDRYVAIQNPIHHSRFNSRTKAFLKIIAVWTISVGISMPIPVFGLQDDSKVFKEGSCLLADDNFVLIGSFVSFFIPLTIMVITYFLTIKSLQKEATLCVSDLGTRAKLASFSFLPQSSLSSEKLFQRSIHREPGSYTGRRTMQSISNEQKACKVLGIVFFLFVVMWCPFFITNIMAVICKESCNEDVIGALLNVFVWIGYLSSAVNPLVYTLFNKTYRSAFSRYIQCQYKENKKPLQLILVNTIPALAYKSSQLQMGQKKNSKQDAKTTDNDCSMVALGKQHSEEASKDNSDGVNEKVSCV
UniProt P41595, whole entry: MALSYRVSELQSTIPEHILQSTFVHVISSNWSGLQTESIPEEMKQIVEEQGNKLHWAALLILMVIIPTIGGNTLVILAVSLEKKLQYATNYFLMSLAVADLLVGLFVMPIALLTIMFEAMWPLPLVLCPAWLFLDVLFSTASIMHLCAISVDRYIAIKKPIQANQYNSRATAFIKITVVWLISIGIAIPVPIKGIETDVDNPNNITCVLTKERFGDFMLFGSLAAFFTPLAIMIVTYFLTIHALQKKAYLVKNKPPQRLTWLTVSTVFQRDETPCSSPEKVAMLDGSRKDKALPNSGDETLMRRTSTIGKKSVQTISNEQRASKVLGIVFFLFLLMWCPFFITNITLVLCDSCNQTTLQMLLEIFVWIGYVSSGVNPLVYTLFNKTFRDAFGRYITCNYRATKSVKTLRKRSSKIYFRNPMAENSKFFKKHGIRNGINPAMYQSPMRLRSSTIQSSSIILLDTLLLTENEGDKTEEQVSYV
UniProt P28335: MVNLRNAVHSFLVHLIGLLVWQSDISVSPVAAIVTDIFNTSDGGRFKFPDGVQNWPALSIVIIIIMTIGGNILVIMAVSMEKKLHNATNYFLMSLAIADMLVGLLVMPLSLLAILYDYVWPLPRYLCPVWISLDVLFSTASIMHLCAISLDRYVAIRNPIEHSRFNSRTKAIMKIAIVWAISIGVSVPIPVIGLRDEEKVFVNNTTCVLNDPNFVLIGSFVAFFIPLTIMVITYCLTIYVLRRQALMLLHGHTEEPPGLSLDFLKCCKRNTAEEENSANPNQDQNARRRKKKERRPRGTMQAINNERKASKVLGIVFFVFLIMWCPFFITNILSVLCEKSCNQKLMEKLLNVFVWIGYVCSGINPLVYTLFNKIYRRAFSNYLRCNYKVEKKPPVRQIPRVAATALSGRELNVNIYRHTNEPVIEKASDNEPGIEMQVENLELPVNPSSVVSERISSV

The target of test [1] is 5-hydroxytryptamine receptor 2A (Rattus norvegicus, UniProt P14842).
The target in test [2] is T1, 5-hydroxytryptamine receptor 2C (Rattus norvegicus, UniProt P08909).
T1 sequence (P08909 whole entry): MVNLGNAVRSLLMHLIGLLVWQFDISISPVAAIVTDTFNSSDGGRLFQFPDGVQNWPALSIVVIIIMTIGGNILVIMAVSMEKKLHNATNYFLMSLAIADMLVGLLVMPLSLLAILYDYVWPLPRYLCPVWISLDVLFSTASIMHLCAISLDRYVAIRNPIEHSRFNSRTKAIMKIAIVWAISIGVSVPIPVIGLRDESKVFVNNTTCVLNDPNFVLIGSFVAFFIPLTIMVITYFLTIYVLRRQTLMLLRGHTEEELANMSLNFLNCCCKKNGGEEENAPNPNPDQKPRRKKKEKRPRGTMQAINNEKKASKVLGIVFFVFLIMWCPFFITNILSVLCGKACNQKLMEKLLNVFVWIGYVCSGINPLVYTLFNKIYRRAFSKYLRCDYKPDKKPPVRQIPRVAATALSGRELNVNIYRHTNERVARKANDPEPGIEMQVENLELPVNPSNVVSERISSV

For test [3], the target named is 5-hydroxytryptamine receptor 2A (Homo sapiens, UniProt P28223).
The target of test [4] is 5-hydroxytryptamine receptor 2B (Homo sapiens, UniProt P41595).
Test [5] concerns the target 5-hydroxytryptamine receptor 2C (Homo sapiens, UniProt P28335).

Usually Ki stands for a dissociation constant, usually derived from enzyme kinetics or from competition with a known ligand. A higher Ki goes with a looser hold on the target. Take `COc1ccc2[nH]cc(CCN)c2c1` [tryptamine, 5-Methoxy]: the values for the Ki in test [1] and in test [2] were 141 nM and 63.1 nM, respectively.
Turning to `Clc1cccc(N2CCNCC2)c1` [mCPP], the Ki in test [3] amounted to 112 nM; in test [4], 37.1 nM; in test [5], 105 nM.
In the case of `CSc1ccc2c(c1)C(N1CCN(C)CC1)Cc1ccccc1S2` (stereo not drawn) [methanesulfonic acid;1-methyl-4-(3-methylsulfanyl-5,6-dihydrobenzo[b][1]benzothiepin-5-yl)piperazine], affinity in test [4] was put at a Ki of 1.54 nM.
Turning to `O=C(CCCN1CCC2(CC1)C(=O)NCN2c1ccccc1)c1ccc(F)cc1` [8-[4-(4-fluorophenyl)-4-oxidanylidene-butyl]-1-phenyl-1,3,8-triazaspiro[4.5]decan-4-one], the Ki was 0.42 nM in test [1] and 871 nM in test [2].
